scFv variants of Ab-95 (light chain) against a SARS-CoV-2 spike peptide

Values reported by Engelhart et al. 2022, doi:10.1038/s41597-022-01779-4 (FLAb copy).

The target is the same throughout: PDVDLGDISGINAS, from the HR2 region of SARS-CoV-2 spike.

The variants keep the heavy chain, the linker and the frameworks of Ab-95 (scFv order VH, a 15-residue (Gly4Ser)3 linker, VL).
VH: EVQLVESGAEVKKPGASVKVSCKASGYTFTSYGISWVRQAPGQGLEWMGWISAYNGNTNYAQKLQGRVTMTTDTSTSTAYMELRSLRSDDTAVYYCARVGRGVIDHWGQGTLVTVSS
VL: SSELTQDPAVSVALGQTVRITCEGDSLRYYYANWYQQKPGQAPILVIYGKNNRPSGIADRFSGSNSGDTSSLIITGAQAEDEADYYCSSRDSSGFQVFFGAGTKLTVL

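The parent was found by panning a naive human phage display library on the peptide. The library (AAYL52) carries one to three amino acid substitutions per variant, with no insertions or deletions. AlphaSeq pools MATa yeast showing the antibodies with MATalpha yeast showing the peptide. The frequency of each diploid, read from paired DNA barcodes, reflects how well the two displayed proteins bind. Read counts were normalised to the haploid input and turned into Kd by a linear fit to BCL2-family pairs of known affinity, for each replicate. The assay was run in three technical replicates.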

Substitutions are numbered in sequence along the VL above, starting at 1 (not Kabat). Affinities are written as log10 Kd with Kd in nM; a lower number is a better binder. The mean shown is taken over the replicates in which the pair was detected. Where no diploid with the target was found in that replicate, the entry reads "n.d.": below detection, most likely a poor binder, though not proof of it. Parent in this assay: reference entry 2.31, copy in this library 2.25. Background: pairings of library AAYL52 with three empty control strains gave a value in 28% of cases (median 3.91, 5th percentile 2.90). Values in that range, when seen in few replicates, are hard to tell from nonspecific mating. For each scFv, signals with the empty controls are counted beside the result, with their mean in brackets.

changes	log10 Kd, replicates	log10 Kd (nM), mean	empty controls
R28V K50G Q96C	n.d. / n.d. / n.d.	n.d.	4 of 9 (4.01)
D91I	n.d. / n.d. / 2.94	2.94	1 of 9 (4.55)
L27M Y29E N52Y	2.04 / 2.20 / 2.27	2.17	1 of 9 (4.72)
N33I S55Y S93M	n.d. / n.d. / n.d.	n.d.	1 of 9 (2.73)
N51S R53Y G94Y	n.d. / n.d. / n.d.	n.d.	3 of 9 (4.09)
Y29V P54F S55R	3.84 / 5.07 / 3.86	4.26	2 of 9 (3.48)
Y30K A32F S89C	3.05 / 2.92 / 3.02	3.00	2 of 9 (3.15)
D25Y Y31H D91T	1.69 / 1.83 / 1.32	1.62	2 of 9 (3.31)
E23Y N52Y S92H	3.19 / 4.26 / 2.66	3.37	3 of 9 (4.11)
R28K R53G D91Q	3.97 / 5.01 / 4.11	4.36	4 of 9 (4.42)
K50F S55E S89N	n.d. / 5.40 / n.d.	5.40	1 of 9 (4.61)
K50I N52K G94T	n.d. / n.d. / n.d.	n.d.	1 of 9 (3.44)
A32V S89V S92A	3.95 / 3.08 / 3.16	3.40	3 of 9 (3.56)
G49M S55F V97H	n.d. / 3.54 / n.d.	3.54	3 of 9 (4.07)
G24D R28M S89V	2.83 / 3.07 / 2.95	2.95	3 of 9 (3.65)
S93L G94N Q96Y	2.63 / 2.20 / 2.41	2.41	1 of 9 (4.23)
D25W N33E P54M	n.d. / n.d. / n.d.	n.d.	2 of 9 (3.59)
D25P R28D F95N	2.94 / 2.69 / 2.34	2.66	1 of 9 (4.36)
S93V	5.31 / 3.08 / 3.19	3.86	6 of 9 (4.44)
S26I N52K S55L	n.d. / n.d. / n.d.	n.d.	3 of 9 (3.59)
Y30I G94E V97P	3.01 / 4.11 / 3.56	3.56	4 of 9 (4.34)
R28V N51V F95L	3.74 / 5.70 / 3.00	4.15	2 of 9 (3.27)
R53G G94P F95G	4.88 / 3.61 / 4.10	4.19	2 of 9 (4.46)
K50L N51T P54I	n.d. / 5.31 / 4.06	4.68	3 of 9 (4.30)
R28V R53D S92F	n.d. / n.d. / n.d.	n.d.	5 of 9 (4.09)
S55C Q96L F98H	n.d. / 4.29 / n.d.	4.29	0 of 9
E23L N51W S89A	n.d. / n.d. / n.d.	n.d.	0 of 9
Y30H G49I N52Q	n.d. / n.d. / n.d.	n.d.	2 of 9 (3.98)
Y29G F95M F98L	1.93 / 2.05 / 2.05	2.01	2 of 9 (4.11)
Y30N A32Y G49N	2.82 / 2.85 / 2.34	2.67	0 of 9
G24M S26P R90W	2.04 / 2.24 / 2.32	2.20	2 of 9 (4.60)
Y29M S88V R90C	n.d. / n.d. / 3.74	3.74	2 of 9 (4.09)
N33C P54F Q96K	n.d. / 5.28 / 3.95	4.62	4 of 9 (3.75)
E23A S26M	3.65 / 3.19 / 2.90	3.25	3 of 9 (3.92)
E23R S92R F98S	n.d. / n.d. / n.d.	n.d.	0 of 9
N33M F95H Q96Y	4.10 / n.d. / 4.22	4.16	1 of 9 (4.49)
P54E S55R S92I	2.74 / 2.65 / 3.13	2.84	4 of 9 (3.48)
S26C Y29N R90F	4.18 / 3.93 / 3.16	3.76	4 of 9 (4.04)
G49N N52W P54H	n.d. / 3.65 / n.d.	3.65	0 of 9
N33Y F98C	3.30 / 5.56 / n.d.	4.43	3 of 9 (3.80)
G24H G49T F95L	3.98 / n.d. / n.d.	3.98	1 of 9 (4.00)
L27G R53A S89E	4.05 / 5.41 / 3.75	4.40	5 of 9 (3.99)
R28V S88C	2.23 / 2.73 / 3.91	2.96	1 of 9 (4.26)
G24L K50I N51W	n.d. / 5.80 / 4.21	5.00	8 of 9 (3.99)
S55F D91L F95R	2.69 / 2.44 / 3.58	2.91	1 of 9 (4.99)
S26W R28K Y29N	2.52 / 2.83 / 3.76	3.04	0 of 9
G24V S55R R90W	4.22 / 4.33 / 3.85	4.13	4 of 9 (3.91)
S26L R28C N51M	3.44 / n.d. / n.d.	3.44	0 of 9
Y31N S55G S88L	1.86 / 1.78 / 1.09	1.58	1 of 9 (4.84)
K50R N52R S92M	3.67 / 2.99 / n.d.	3.33	5 of 9 (4.41)
K50C N51G V97S	n.d. / n.d. / 3.41	3.41	2 of 9 (3.62)

The last 7 entries again:

| changes | log10 Kd, replicates | log10 Kd (nM), mean | empty controls |
|---|---|---|---|
| S55F D91L F95R | 2.69 / 2.44 / 3.58 | 2.91 | 1 of 9 (4.99) |
| S26W R28K Y29N | 2.52 / 2.83 / 3.76 | 3.04 | 0 of 9 |
| G24V S55R R90W | 4.22 / 4.33 / 3.85 | 4.13 | 4 of 9 (3.91) |
| S26L R28C N51M | 3.44 / n.d. / n.d. | 3.44 | 0 of 9 |
| Y31N S55G S88L | 1.86 / 1.78 / 1.09 | 1.58 | 1 of 9 (4.84) |
| K50R N52R S92M | 3.67 / 2.99 / n.d. | 3.33 | 5 of 9 (4.41) |
| K50C N51G V97S | n.d. / n.d. / 3.41 | 3.41 | 2 of 9 (3.62) |